Reference: patent US9977024B2, “Targeted covalent probes and inhibitors of proteins containing redox-sensitive cysteines” (THE SCRIPPS RESEARCH INSTITUTE, priority 2012, dated 2018)

What was measured:
[1] = Microsome stability, human liver microsomes
[2] = Microsome stability, mouse liver microsomes
[3] = Plasma stability in mice (20 mg/kg IP)
EGFR = EGFR (Homo sapiens, UniProt P00533); assay: Western blot of pEGFR in A431 cells under H2O2 stress or hypoxia; conditions: for dose dependence of EGFR inhibition: FIG. 15

For `O=C1CC(=O)C(CC(=O)Nc2ccc3ncnc(Nc4cccc(Br)c4)c3c2)C1` (stereo not shown), the “Microsome Stability Human Cl” value [1] was “(6.3) μl/min/mg”, the “Microsome Stability Mouse Cl” value [2] was “(11.8) μl/min/mg” and the “Microsome Stability Mouse t1/2” value [2] was 59 min. For the same compound, the “Plasma Stability in Mice 1 h” value [3] was 14.7 µM, the “Plasma Stability in Mice 4 h” value [3] was 1.1 µM and the “Plasma Stability in Mice 8 h” value [3] was 0.18 µM. For the same compound, the “Plasma Stability in Mice 24 h” value [3] was less than 0.022 µM, the “dose dependence of EGFR inhibition” value (EGFR) was “dose-dependent” and the “affinity for EGFR by Western blot” value (EGFR; FIG. 15, increasing concentrations) was “higher affinity for EGFR compared to Compound 1a”.

In the case of `O=C1CC(=O)CC(C(=O)Nc2ccc3ncnc(Nc4cccc(Br)c4)c3c2)C1`, the “Microsome Stability Human Cl” value [1] is reported as “(24.2) μl/min/mg”, the “Microsome Stability Human t1/2” value [1] is reported as 29 min and the “Microsome Stability Mouse Cl” value [2] is reported as “(42.1) μl/min/mg”. For the same compound, the “Microsome Stability Mouse t1/2” value [2] was 16 min, the “Plasma Stability in Mice 1 h” value [3] was 11.6 µM and the “Plasma Stability in Mice 4 h” value [3] was 2.6 µM. For the same compound, the “Plasma Stability in Mice 8 h” value [3] was 0.48 µM, the “Plasma Stability in Mice 24 h” value [3] was less than 0.022 µM and the “redox dependence of pEGFR inhibition” value (EGFR; A431 cells, untreated vs H2O2 stress / hypoxia) was “time-dependent inhibition and redox-modulated inhibition”. The “dose dependence of EGFR inhibition” value (EGFR) was “dose-dependent”.
